INS-1E GSIS act: GLuc luminescence reporter in INS-1E cells, primary screen for activators of glucose-dependent secretion of insulin; actives 0.61% (n = 370,000); activation, % at 16.6 µM; AID 743287; INS-1E GLuc reporter insulin secretion, 2-3 h;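 active means lowest replicate activation of at least 40%, so every replicate reaches that level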;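 further: 0% = median of neutral control wells and 100% = median of IBMX positive control wells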
SMARCA2 activ: activators of SMARCA2 function. MG213 cells, MMTV-luciferase reporter, dexamethasone, overnight. activation, % at 9.1 µM. actives 1% (n = 370,000); in the data active means activation above about 7.8%;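 further: 0% = vehicle wells and 100% = reference activator wells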
UUG fidelity: modulators of start codon recognition fidelity in yeast. S. cerevisiae UUG-firefly luciferase reporter, luminescence/redox ratio. activity score, % at 18.7 µM. 350,000 tested, 0.13% active;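 active = replicate mean at a twofold rise or more, about +100% in these data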;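 note: firefly luciferase made from a UUG start codon reports start codon fidelity; reporter light over untreated wells divided by growth signal over untreated wells; some hits fall short of that in this replicate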
PDI inh: blocks human protein disulfide isomerase activity; AID 588391; PDI insulin aggregation turbidity, A650, 90 min; actives 0.052% (n = 350,000); P07237; inhibition, % at 10 µM;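 active means mean inhibition across replicates of 30% or more, whatever share of single replicates reach that level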
NR1D1 modulator: modulators of human Rev-erb alpha DNA binding | Rev-erbα–FITC-DNA binding, fluorescence polarization, 90 min | activity, % at 10 µM | actives 0.79% (n = 370,000) | AID 1259318;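 active means activity above about 14%, limit read from the data; passing the limit was not always enough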;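 further: 0% = DMSO wells with 35 nM protein and 100% = DMSO wells with 750 nM protein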
ERp5 block: blocks human ERp5 reductase activity on insulin. Q15084. ERp5 insulin aggregation, absorbance 650 nm, 90 min. inhibition, % at 9.99 µM. actives 0.05% (n = 350,000);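 active means mean replicate inhibition above about 25%, with every replicate also reaching it, limit read from the data, passing the limit was not always enough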
Rev-erbA confirm: Rev-erb alpha (human) modulation, hit confirmation | AID 1259319 | shares compounds with NR1D1 modulator | Rev-erb alpha FITC-DNA binding, fluorescence polarization, 90 min | activation, % at 25 µM | actives 61% (n = 3,000);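 active means activation at or above a set limit, or at least 3 SD above the negative control mean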;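 further: 0% = 35 nM protein with DMSO and 100% = 750 nM protein high control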
RORg counter: counter-screen for Rev-erb alpha modulators: RORgamma DNA binding; shares compounds with NR1D1 modulator; purified RORgamma protein-FITC-DNA binding, fluorescence polarization; IC50, µM; actives 8% (n = 910);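 active means Compounds whose fitted half-maximal concentration for disrupting protein-DNA binding is below 10 micromolar; the record names Rev-erb in its text, so the target is in doubt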
Numbers without * were called inactive; . = no result. In the library only some 2.1% were active in any assay of this set; here they are far more common.

SMILES | INS-1E GSIS act | SMARCA2 activ | UUG fidelity | PDI inh | NR1D1 modulator | ERp5 block | Rev-erbA confirm | others
C[C@@H]1CN([C@@H](C)CO)C(=O)c2cc(NC(=O)C3CC3)ccc2O[C@H]1CN(C)C(=O)Nc1ccc2c(c1)OCO2 | -3 | . | -2 | . | . | -3 | .
COc1ccc(-c2nsc3c(N4CCCCC4)ncnc23)cc1 | . | -5 | . | -12 | 20* | . | 1
COc1ccc(-c2nsc3c(N4CCN(S(=O)(=O)c5ccccc5F)CC4)ncnc23)cc1 | -10 | -2 | -5 | 2 | 32* | . | 13
Cc1ccc(-c2ccc([C@@H]3[C@H](CO)N4CCCCN(C(=O)c5ccc(F)cc5)C[C@@H]34)cc2)cc1 | -11 | . | -5 | . | . | -4 | .
CCC1CCc2c(sc(NC(=O)c3cccnc3)c2C(N)=O)C1 (stereo not drawn) | 11 | 3 | 1 | 5 | 27* | 3 | 6
CCCC1CCc2c(sc(NC(=O)c3cccs3)c2C(N)=O)C1 (stereo not drawn) | -16 | 0 | -11 | -7 | 26* | . | 7
CCCOc1ccc(F)cc1-c1cc(C(=O)Nc2ccccc2)[nH]n1 | 5 | 2 | -13 | -3 | 21* | -2 | -7
COc1ccc(S(=O)(=O)N(C)C[C@@H]2Oc3ccc(NC(=O)c4ccncc4)cc3CC(=O)N([C@@H](C)CO)C[C@H]2C)cc1 | 11 | . | 0 | . | . | -10 | .
COc1ccc(NC(=O)c2ccc(C(=O)c3cc(OC)ccc3OC)cc2)cc1 | . | . | -4 | -2 | 46* | 1 | 33* | RORg counter=>40
COc1ccc(C(=O)Nc2ccc(NC(=O)c3cccc(OC)c3)cn2)cc1 | -7 | -2 | -2 | 0 | 18* | -6 | 14
COc1ccc(OC)c(C(=O)c2ccc(C(=O)Nc3ccccc3)cc2)c1 | 11 | -3 | -27 | 1 | 3 | . | .
COc1ccc(C(=O)Nc2ccc(NC(=O)c3cc(OC)c(OC)c(OC)c3)cn2)cc1 | 10 | -2 | -7 | 2 | 20* | -6 | 2

The list goes on; the last 3 above are carried over.
SMILES | INS-1E GSIS act | SMARCA2 activ | UUG fidelity | PDI inh | NR1D1 modulator | ERp5 block | Rev-erbA confirm | others
COc1ccc(C(=O)Nc2ccc(NC(=O)c3cccc(OC)c3)cn2)cc1 | -7 | -2 | -2 | 0 | 18* | -6 | 14
COc1ccc(OC)c(C(=O)c2ccc(C(=O)Nc3ccccc3)cc2)c1 | 11 | -3 | -27 | 1 | 3 | . | .
COc1ccc(C(=O)Nc2ccc(NC(=O)c3cc(OC)c(OC)c(OC)c3)cn2)cc1 | 10 | -2 | -7 | 2 | 20* | -6 | 2
Cc1ccc(O)c(C2=NCCNC(C(F)(F)F)=C2)c1 | . | 2 | -7 | 1 | 4 | . | .
Oc1c(C2=NCCNC(C(F)(F)F)=C2)ccc2ccccc12 | -39 | 7 | . | -7 | 18* | 1 | 7
CC(C)[C@H]1C(=O)N[C@@H](c2ccc(F)cc2)CC=CC[C@H](C)Oc2ccccc2C(=O)N1C (mixture of isomers) | 8 | . | . | . | . | . | .
CC1CN(C(=O)/C=C/c2ccccc2[N+](=O)[O-])CC(C)O1 (stereo not drawn) | 1 | 1 | . | -5 | 18* | 6 | -4
FC(F)(F)c1cc(-c2ccco2)nc(-n2nnc3ccccc32)n1 | -3 | -3 | -9 | 3 | 21* | . | 1
COc1cccc(N2CCN(c3nc(C)cc(C)c3C#N)CC2)c1 | . | 0 | -6 | 12 | -2 | -1 | .
COc1cccc(-c2c(C#N)c(SC)nc3cc(C)nn23)c1 | 25 | -5 | . | 3 | 39* | 4 | 18
O=C(CSc1ncnc2c1oc1ccccc12)Nc1cccc(C(F)(F)F)c1 | 15 | 0 | -3 | 3 | 2 | -7 | .
O=C(CSc1ncnc2c1sc1ccccc12)Nc1ccc(Br)cc1 | 0 | 0 | . | -19 | 293* | 1 | 195* | RORg counter=>40
Cn1c(SCC(=O)Nc2ccccc2F)nnc1-c1cc2ccccc2o1 | . | -1 | -13 | -1 | 26* | . | 16
CCc1nnc(NC(=O)CSc2nnc(-c3ccccc3NC(=O)c3ccccc3)o2)s1 | 52* | -3 | -29 | -21 | 28* | . | 7
O=C(CSc1ncnc2c1oc1ccccc12)Nc1ccccc1F | . | 1 | -15 | 5 | 606* | 0 | 616* | RORg counter=>40
CC(C)CC#Cc1ccc2c(c1)O[C@H](CN(C)Cc1cncnc1)[C@@H](C)CN([C@H](C)CO)S2(=O)=O | -15 | . | 4 | . | . | 1 | .
C[C@@H]1CN([C@@H](C)CO)C(=O)Cc2cc(NC(=O)Cc3ccccc3)ccc2O[C@H]1CN(C)Cc1ccc(Oc2ccccc2)cc1 | -14 | . | 6 | . | . | 2 | .
